Values of other authors, collected in article PMC5820113 (Neuropharmacology, 2017).

Biological target: dopamine transporter (DAT)
Settings: read-out: Ki, DAT affinity; ref Cao et al, 2016; Zhang et al, 2017; cited from earlier work

In the case of `Fc1ccc(C(SCCNCCCc2ccccc2)c2ccc(F)cc2)cc1` [JJC8-016, N-[2-([bis(4-fluorophenyl)methyl]thio)ethyl]-3-phenylpropan-1-amine], the Ki is given as 116 nM.
